SMILES strings stand for the structures. Where “and” joins values, the source holds several entries; their conditions need not be identical. Equal values may be shown once. Only a part is listed here, and it is no random draw. Records with an inconclusive call do not appear. Calls of active or inactive are those of the source. Calls follow the shape of the dose curve; as a rule, active = well fitted activation curve with a large enough effect; inconclusive = small, poorly fitted or top-dose-only effect, or another doubt; inactive = no such curve, though single readings can be large or run the other way.

This experiment in a line: Primary qHTS for Identification of Small Molecule Activators of Huntingtin-Antisense Promoter Activity. Also: nearly all actives have a fitted effect of over 55% in size. As to conditions: HEK293 HTT-AS promoter firefly luciferase reporter, 24 h, percent change from vehicle, -100% = no light; at 57.5 µM (top of the series) unless noted. The source says: Assay Provider: Russell L. Margolis M.D.
Department Neurology, Johns Hopkins University School of Medicine, Baltimore, MD
Huntington's Disease (HD) is a neurodegenerative disorder caused by a CAG repeat expansion in exon 1 of huntingtin (HTT). While there are currently no disease-modifying treatments for HD, recent efforts have focused on development of nucleotide-based therapeutics to lower HTT expression. As an alternative to siRNA or oligonucleotide methods, we hypothesized that suppression of HTT expression might be accomplished by small molecules that either (1) directly decrease HTT expression by suppressing HTT promoter activity or (2) indirectly decrease HTT expression by increasing the promoter activity of HTT-AS, the gene antisense to HTT that appears to inhibit expression of HTT.
We developed and employed a high throughput screen for modifiers of HTT and HTT-AS promoter activity using luminescent reporter HEK293 cells; of the 52,041 compounds tested, we identified 898 replicable hits. We used a rigorous stepwise approach to assess compound toxicity and the capacity of the compounds to specifically lower huntingtin protein in 5 different cell lines, including HEK293 cells, HD lymphoblastoid cells, mouse primary neurons, HD iPSCs differentiated into cortical-like neurons, and HD hESCs. We found no compounds which were able to lower huntingtin without lowering cell viability in all assays, though the potential efficacy of a few compounds at non-toxic doses could not be excluded.
SEQUENCE No. (1, 2, 3, etc.); […] […]
7; Detection; Luminescence; FLuc […]
1; High-throughput screening, measuring luminescence from a Hek293 luciferase reporter, was performed in 1,536 well white-walled tissue-culture treated plates. […]
4; Cells were then incubated for 24 hours at 37 degrees C prior to luminescence measurements.
5; In all cases, luminescence was measured using the Dual-Glo Luciferase Reporter Assay System (Promega) following the manufacturer's instructions. […]
7; Luminescence signal was obtained using the PerkinElmer ViewLux plate reader. […]
(qHTS replaces the single test concentration by a dilution series.)
As to `CN(CCCl)CCCl`, the activity change, positive = activation is inactive: -20.3% and inactive: -18%.

As for `CCC(=O)N(c1ccccc1)C1(COC)CCN(CCc2cccs2)CC1`, the activity change, positive = activation is inactive: -9.88% [at 116 µM].

Take `CCC(=O)N(c1ccccc1)C1(COC)CCN(CCn2nnn(CC)c2=O)CC1`: the activity change, positive = activation is inactive: -17.2% [at 116 µM].
